Results published in ChEMBL document CHEMBL5579817, “Recent advances in targeting histone H3 lysine 36 methyltransferases for cancer therapy” (Eur J Med Chem, 2024).

Molecular target: T1, Histone-lysine N-methyltransferase NSD3 (Homo sapiens, UniProt Q9BZ95)
T1 sequence (Q9BZ95 whole entry): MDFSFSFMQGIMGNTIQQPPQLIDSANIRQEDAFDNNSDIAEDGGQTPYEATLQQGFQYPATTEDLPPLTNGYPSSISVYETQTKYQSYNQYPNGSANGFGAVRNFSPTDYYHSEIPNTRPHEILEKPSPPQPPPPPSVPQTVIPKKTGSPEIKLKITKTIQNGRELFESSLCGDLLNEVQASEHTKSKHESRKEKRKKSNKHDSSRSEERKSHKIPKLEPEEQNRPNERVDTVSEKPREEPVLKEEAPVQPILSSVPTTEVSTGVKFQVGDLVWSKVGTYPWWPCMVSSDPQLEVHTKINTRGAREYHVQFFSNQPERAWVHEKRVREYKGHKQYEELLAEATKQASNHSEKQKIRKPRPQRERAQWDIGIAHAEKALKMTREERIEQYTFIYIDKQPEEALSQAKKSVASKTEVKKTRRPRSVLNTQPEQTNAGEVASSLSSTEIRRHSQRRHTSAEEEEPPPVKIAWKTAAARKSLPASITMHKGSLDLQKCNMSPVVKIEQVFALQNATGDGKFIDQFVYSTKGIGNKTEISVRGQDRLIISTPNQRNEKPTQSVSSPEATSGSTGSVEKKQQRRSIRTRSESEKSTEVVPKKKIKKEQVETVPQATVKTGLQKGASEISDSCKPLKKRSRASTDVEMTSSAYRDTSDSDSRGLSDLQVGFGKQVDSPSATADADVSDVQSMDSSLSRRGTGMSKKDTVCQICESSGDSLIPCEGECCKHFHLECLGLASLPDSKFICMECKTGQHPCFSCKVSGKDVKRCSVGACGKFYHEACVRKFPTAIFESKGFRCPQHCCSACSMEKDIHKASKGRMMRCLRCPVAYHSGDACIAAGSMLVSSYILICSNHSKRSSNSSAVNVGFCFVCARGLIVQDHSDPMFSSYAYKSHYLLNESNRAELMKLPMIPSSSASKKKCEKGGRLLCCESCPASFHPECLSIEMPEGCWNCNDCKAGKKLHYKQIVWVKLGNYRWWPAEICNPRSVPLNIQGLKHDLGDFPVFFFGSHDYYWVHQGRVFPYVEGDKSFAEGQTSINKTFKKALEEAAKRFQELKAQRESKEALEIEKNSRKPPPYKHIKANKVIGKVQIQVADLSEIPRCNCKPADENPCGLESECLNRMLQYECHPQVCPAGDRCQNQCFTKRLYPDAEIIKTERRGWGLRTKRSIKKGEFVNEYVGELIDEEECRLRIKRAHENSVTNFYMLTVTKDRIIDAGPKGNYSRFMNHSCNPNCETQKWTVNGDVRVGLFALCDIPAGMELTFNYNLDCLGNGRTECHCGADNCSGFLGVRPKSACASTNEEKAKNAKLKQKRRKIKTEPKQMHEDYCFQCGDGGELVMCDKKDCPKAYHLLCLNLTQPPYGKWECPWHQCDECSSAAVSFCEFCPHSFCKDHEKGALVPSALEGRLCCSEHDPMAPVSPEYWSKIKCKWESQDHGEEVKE
Assay: Binding affinity to human NSD3 PWWP1 domain (247 to 398 residues) assessed as dissociation constant by SPR analysis

Work on `Cc1cc(CN)cc(C)c1-c1ncn(C)c1-c1ccnc2cc(F)ccc12` yielded a Kd of 445 nM.
